The experiment has as its target Insulin (Sigma-Aldrich, 19278) (Homo sapiens (Human)) (UniProt P01308). The experiment in a line: NS-ELISA, plate coated with insulin, mAb at 100 nM; ratio of signal to a buffer well. On the technique in general: In an ELISA, binding on a coated surface is turned into a signal by an enzyme label.

Chains of the proteins cited; added tags and fusions are not shown. Residues count along the entry.
UniProt P01308, 25-54 limits assumed, chain 1 of 2: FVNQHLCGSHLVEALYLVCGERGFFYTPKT
UniProt P01308, 90-110 limits assumed, chain 2 of 2: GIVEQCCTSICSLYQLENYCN

In patent US20250235548A1, “ANTIBODY-DRUG CONJUGATES TARGETING NAPI2B AND METHODS OF USE” (Zymeworks BC Inc., priority 2022, published 2025) one finds NS-ELISA binding score data, which are given here for one molecule.

B1: v29452 humanized anti-NaPi2b antibody (antibody, human IgG1, kappa, V domains shown)
VH: QVQLVQSGAEVKKPGASVKVSCKASGFTFTSYNVHWVRQAPGQGLEWMGAISPGNGDLSYAQKFQGRVTMTRDTSTSTVYMELSSLRSEDTAVYYCARGRTGMGAVDYWGQGTLVTVSS
VL: DVQMTQSPSSLSASVGDRVTITCRASQDVYSYLNWYQQKPGKAVKLLIYYTSRLQSGVPSRFSGSGSGTDYTLTISSLQPEDIATYYCQQYNIFPWTFGQGTKLEIKR
In the case of B1, the NS-ELISA binding score stood at 1.03.
